# From publication PMC5496796 (Clinical cancer research : an official journal of the …, 2017)
# System: patients with relapsed or refractory multiple myeloma
# Conditions: single agent ricolinostat, N=15
smiles,measurement,value
O=C(CCCCCCNC(=O)c1cnc(N(c2ccccc2)c2ccccc2)nc1)NO [ricolinostat],"Diarrhea, Grade 3/4",0 (0) N (%)
same,"Fatigue, Grade 3/4",0 (0) N (%)
